Results from US12152019B2, “Arylalkyl pyrazole compounds as indoleamine 2,3-dioxygenase inhibitors” (Merck Sharp & Dohme LLC, priority 2018, dated 2024).

Amino acid sequences for entries named in this document (tags omitted).
UniProt P14902, whole entry: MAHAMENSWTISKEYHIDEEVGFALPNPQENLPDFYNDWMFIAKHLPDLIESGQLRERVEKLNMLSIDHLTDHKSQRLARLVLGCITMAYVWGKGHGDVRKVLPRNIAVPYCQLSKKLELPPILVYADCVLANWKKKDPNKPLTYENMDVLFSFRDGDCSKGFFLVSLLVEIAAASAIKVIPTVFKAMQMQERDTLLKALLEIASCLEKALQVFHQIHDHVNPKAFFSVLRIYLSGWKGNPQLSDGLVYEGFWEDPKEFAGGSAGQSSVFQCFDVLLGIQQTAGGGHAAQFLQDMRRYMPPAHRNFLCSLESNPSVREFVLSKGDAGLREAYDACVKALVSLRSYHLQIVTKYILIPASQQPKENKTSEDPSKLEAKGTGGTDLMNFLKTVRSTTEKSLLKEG

molecular target: IDO1 (Homo sapiens, UniProt P14902); test: IDO1 Cellular Assay in HeLa Cells Stimulated with IFNγ; format: cell-based; settings: HeLa cells stimulated with IFNγ 100 ng/mL, 300 uM L-tryptophan, about 48 hours, fluorescence readout; read-out: HeLa Cell Potency, IC50

Q: `O=C(c1cccc(Cl)c1)N1CCC(CCn2nc(C(=O)N3CCC(O)CC3)c3c2CCC3)CC1` [Example 41, (1-(2-(1-(3-chlorobenzoyl)piperidin-4-yl)ethyl)-1,4,5,6-tetrahydrocyclopenta[c]pyrazol-3-yl)(4-hydroxypiperidin-1-yl)methanone] was tested. Which IC50 did it give?
A: The IC50 was 233 nM.

Q: For `Cc1c(F)ccc(C2CCC(CCn3nc(C(=O)N4CCC(F)(CO)CC4)c4c3CCC4)CC2)c1C` (single isomer, unassigned) [Example 51, (1-(2-(4-(4-fluoro-2,3-dimethylphenyl)cyclohexyl)ethyl)-1,4,5,6-tetrahydrocyclopenta[c]pyrazol-3-yl)(4-fluoro-4-(hydroxymethyl)piperidin-1-yl)methanone], which IC50 is on record?
A: Its IC50 is 93.8 nM.

Q: For `Cc1cccnc1O[C@H]1CC[C@@H](CCn2nc(C(=O)N3CCN(C(=O)CO)CC3)c3c2C[C@H]2C[C@@H]32)CC1` [Example 94, 2-hydroxy-1-(4-((3bR,4aR)-1-(2-((1s,4S)-4-((3-methylpyridin-2-yl)oxy)cyclohexyl)ethyl)-3b,4,4a,5-tetrahydro-1H-cyclopropa[3,4]cyclopenta[1,2-c]pyrazole-3-carbonyl)piperazin-1-yl)ethan-1-one], which IC50 is on record?
A: The IC50 was 1.83 nM.

Q: With `CC(=O)NC1CCN(C(=O)c2nn(CC[C@H]3CC[C@@H](Oc4ccccc4Cl)CC3)c3c2CCC3)CC1` [Example 70, N-[1-[1-[2-[4-(2-chlorophenoxy)cyclohexyl]ethyl]-5,6-dihydro-4H-cyclopenta[c]pyrazole-3-carbonyl]-4-piperidyl]acetamide] as the compound, how does the IC50 read?
A: Its IC50 is 0.55 nM.

Q: Which IC50 does the source give for `CC(=O)NC1CCN(C(=O)c2nn(C[C@@H]3C[C@@H](Oc4ccc(Cl)cn4)CCO3)c3c2CC(F)(F)CC3)CC1` [Example 76, N-(1-(1-(((2S,4S)-4-((5-chloropyridin-2-yl)oxy)tetrahydro-2H-pyran-2-yl)methyl)-5,5-difluoro-4,5,6,7-tetrahydro-1H-indazole-3-carbonyl)piperidin-4-yl)acetamide] here?
A: The IC50 was 2.18 nM.

Q: For `COC(Cn1nc(C(=O)N2C[C@@H](C)O[C@@H](C)C2)c2c1CCC2)C1CCN(c2cccc(C)c2C)CC1` (single isomer, unassigned) [Example 45], which IC50 is on record?
A: The IC50 was 1190 nM.

Q: `Cc1ccc(Cl)c(O[C@H]2CC[C@H](CCn3nc(C(=O)N4CCN(C(=O)CO)CC4)c4c3CCC4)CC2)c1` [Example 59, 1-(4-(1-(2-((1r,4r)-4-(2-chloro-5-methylphenoxy)cyclohexyl)ethyl)-1,4,5,6-tetrahydrocyclopenta[c]pyrazole-3-carbonyl)piperazin-1-yl)-2-hydroxyethan-1-one] was tested. Which IC50 did it give?
A: Its IC50 is 45.1 nM.

Q: For `CC(=O)NC1CCN(C(=O)c2nn(CCC3CCN(c4ccc(F)cc4C)CC3)c3c2CCCC3)CC1` [Example 23, N-[1-[1-[2-[1-(4-fluoro-2-methyl-phenyl)-4-piperidyl]ethyl]-4,5,6,7-tetrahydroindazole-3-carbonyl]-4-piperidyl]acetamide], which IC50 is on record?
A: Its IC50 is 1.79 nM.

Q: With `CC(=O)NC1CCN(C(=O)c2nn(CC[C@H]3CC[C@@H](Oc4ncccc4C)CC3)c3c2CCC3)CC1` [Example 62, N-(1-(1-(2-((1s,4s)-4-((3-methylpyridin-2-yl)oxy)cyclohexyl)ethyl)-1,4,5,6-tetrahydrocyclopenta[c]pyrazole-3-carbonyl)piperidin-4-yl)acetamide] as the compound, how does the IC50 read?
A: Its IC50 is 0.688 nM.

Q: For `Cc1c(Cl)cccc1OC1CCC(Cn2nc(C(=O)N3C[C@@H](C)O[C@@H](C)C3)c3c2CCC3)CC1` (single isomer, unassigned) [Example 56], which IC50 is on record?
A: Its IC50 is 21.2 nM.

Q: For `Cc1ccc(Cl)c(O[C@H]2CC[C@H](CCn3nc(C(=O)N4CCC(F)(CO)CC4)c4c3CCC4)CC2)c1` [Example 60, (1-(2-((1r,4r)-4-(2-chloro-5-methylphenoxy)cyclohexyl)ethyl)-1,4,5,6-tetrahydrocyclopenta[c]pyrazol-3-yl)(4-fluoro-4-(hydroxymethyl)piperidin-1-yl)methanone], which IC50 is on record?
A: The IC50 was 47.3 nM.

Q: `CC(=O)NC1CCN(C(=O)c2nn(CCN3CCN(c4cccc(Cl)c4C)CC3)c3c2[C@@H]2C[C@@H]2C3)CC1` [Example 102, N-(1-((3bR,4aR)-1-(2-(4-(3-chloro-2-methylphenyl)piperazin-1-yl)ethyl)-3b,4,4a,5-tetrahydro-1H-cyclopropa[3,4]cyclopenta[1,2-c]pyrazole-3-carbonyl)piperidin-4-yl)acetamide] was tested. Which IC50 did it give?
A: Its IC50 is 2.06 nM.

Q: `Cc1cccnc1O[C@H]1CC[C@H](CCn2nc(C(=O)N3CC[C@H](O)[C@H](F)C3)c3c2C[C@H]2C[C@@H]32)CC1` [Example 82, [(3R,4S)-3-fluoro-4-hydroxypiperidin-1-yl] [(3bR,4aR)-1-(2-{trans-4-[(3-methylpyridin-2-yl)oxy]cyclohexyl}ethyl)-3b,4,4a,5-tetrahydro-1H-cyclopropa[3,4]cyclopenta [1,2-c]pyrazol-3-yl] methanone] was tested. Which IC50 did it give?
A: Its IC50 is 143 nM.

Q: `O=C(c1nn(C[C@H]2C[C@H](Oc3ncccc3F)CCO2)c2c1[C@@H]1C[C@@H]1C2)N1CCC(OCCO)CC1` [Example 80, 2,6-anhydro-1,3,5-trideoxy-4-O-(3-fluoropyridin-2-yl)-1-{(3bR,4aR)-3-[4-(2-hydroxyethoxy)piperidine-1-carbonyl]-3b,4,4a,5-tetrahydro-1H-cyclopropa[3,4]cyclopenta [1,2-c]pyrazol-1-yl}-D-erythro-hexitol] was tested. Which IC50 did it give?
A: Its IC50 is 12 nM.

Q: How did the IC50 turn out when `Cc1cccnc1O[C@H]1CC[C@@H](CCn2nc(C(=O)N3CCC(O)CC3)c3c2C[C@H]2C[C@@H]32)CC1` [Example 81, (4-hydroxypiperidin-1-yl)((3bR,4aR)-1-(2-((1s,4S)-4-((3-methylpyridin-2-yl)oxy)cyclohexyl)ethyl)-3b,4,4a,5-tetrahydro-1H-cyclopropa[3,4]cyclopenta[1,2-c]pyrazol-3-yl)methanone] was run?
A: The IC50 was 1.43 nM.

Q: `Cc1c(Cl)cccc1N1CCC(CCn2nc(C(=O)N3CC[C@@H](O)[C@@H](F)C3)c3c2CCC3)CC1` (stereo in doubt) [Example 14, [1-[2-[1-(3-chloro-2-methyl-phenyl)piperidin-1-ium-4-yl]ethyl]-5,6-dihydro-4H-cyclopenta[c]pyrazol-3-yl]-(3-fluoro-4-hydroxy-1-piperidyl)methanone] was tested. Which IC50 did it give?
A: Its IC50 is 29.7 nM.

Q: `Cc1c(F)ccc(C2CCC(CCn3nc(C(=O)N4CCN(C(=O)CO)CC4)c4c3CCC4)CC2)c1C` (single isomer, unassigned) [Example 50, 1-(4-(1-(2-(4-(4-fluoro-2,3-dimethylphenyl)cyclohexyl)ethyl)-1,4,5,6-tetrahydrocyclopenta[c]pyrazole-3-carbonyl)piperazin-1-yl)-2-hydroxyethan-1-one] was tested. Which IC50 did it give?
A: Its IC50 is 42.3 nM.

Q: How did the IC50 turn out when `CC(=O)NC1CCN(C(=O)c2nn(CCC3CCN(c4cccc(C(F)(F)F)c4C)CC3)c3c2CCCC3)CC1` [Example 22, N-[1-[1-[2-[1-[2-methyl-3-(trifluoromethyl)phenyl]-4-piperidyl]ethyl]-4,5,6,7-tetrahydroindazole-3-carbonyl]-4-piperidyl]acetamide] was run?
A: The IC50 was 1.81 nM.

Q: How did the IC50 turn out when `CC(=O)NC1CCN(C(=O)c2nn(CC[C@H]3CC[C@@H](Oc4ncccc4C)CC3)cc2C2CC2)CC1` [Example 74, N-(1-(4-cyclopropyl-1-(2-((1s,4s)-4-((3-methylpyridin-2-yl)oxy)cyclohexyl)ethyl)-1H-pyrazole-3-carbonyl)piperidin-4-yl)acetamide] was run?
A: Its IC50 is 2.76 nM.

Q: Which IC50 does the source give for `Cc1c(F)ccc(C2CCC(CCn3nc(C(=O)N4CCN(C(=O)CO)CC4)c4c3CCC4)CC2)c1C` (single isomer, unassigned) [Example 49, 1-(4-(1-(2-(4-(4-fluoro-2,3-dimethylphenyl)cyclohexyl)ethyl)-1,4,5,6-tetrahydrocyclopenta[c]pyrazole-3-carbonyl)piperazin-1-yl)-2-hydroxyethan-1-one] here?
A: Its IC50 is 3.57 nM.

Q: How did the IC50 turn out when `CC(=O)NC1CCN(C(=O)c2nn(C[C@@H]3C[C@@H](Oc4ccc(Cl)cn4)CCO3)c3c2CC(F)(F)CC3)CC1` [Example 77, 6-{3-[4-(acetylamino)piperidine-1-carbonyl]-5,5-difluoro-4,5,6,7-tetrahydro-1H-indazol-1-yl}-1,5-anhydro-3-O-(5-chloropyridin-2-yl)-2,4,6-trideoxy-D-erythro-hexitol] was run?
A: The IC50 was 5 nM.

Q: Which IC50 does the source give for `Cc1cccc(N2CCC(C(F)Cn3nc(C(=O)N4C[C@@H](C)O[C@@H](C)C4)c4c3CCC4)CC2)c1C` (single isomer, unassigned) [Example 48] here?
A: The IC50 was 8.13 nM.
